US20190367567A1 (priority 2016, published 2019)

Test system: human erythrocytes
Assay: Human RBC hemolysis (toxicity)
Details: at 160 μM

Q: With `CC[C@H](C)[C@H](N)C(=O)N1CCC[C@H]1C(=O)N[C@@H](C)C(=O)N[C@@H](CCCNC(=N)N)C(=O)NCC(=O)N[C@@H](C)C(=O)N[C@@H](Cc1ccccc1)C(=O)N[C@H](C(=O)N[C@@H](CC(N)=O)C(=O)NCC(=O)N[C@@H](CCCNC(=N)N)C(=O)N[C@@H](Cc1c[nH]c2ccccc12)C(=O)N[C@@H](CC(=O)O)C(=O)N[C@@H](CO)C(=O)N[C@@H](CCC(N)=O)C(=O)N[C@@H](CS)C(=O)N[C@@H](Cc1c[nH]cn1)C(=O)N[C@@H](CCCNC(=N)N)C(=O)N[C@@H](Cc1ccccc1)C(=O)N[C@@H](CO)C(=O)N[C@@H](CC(N)=O)C(=O)NCC(=O)N[C@@H](C)C(=O)N[C@H](C(=O)N[C@@H](C)C(=O)N[C@@H](CS)C(=O)N[C@@H](C)C(=O)O)[C@@H](C)CC)[C@@H](C)CC` as the compound, how does the lysis of erythrocytes read?
A: Its lysis of erythrocytes is 20%.
